Emax and Ratio EC50 data for one molecule are collected here from ChEMBL document CHEMBL3779872, “Discovery and Characterization of 2-Aminooxazolines as Highly Potent, Selective, and Orally Active TAAR1 Agonists” (ACS Med Chem Lett, 2016).

The target of experiment [1] is T1, Trace amine-associated receptor 1 (Homo sapiens) (UniProt Q96RJ0).
T1 sequence (whole entry): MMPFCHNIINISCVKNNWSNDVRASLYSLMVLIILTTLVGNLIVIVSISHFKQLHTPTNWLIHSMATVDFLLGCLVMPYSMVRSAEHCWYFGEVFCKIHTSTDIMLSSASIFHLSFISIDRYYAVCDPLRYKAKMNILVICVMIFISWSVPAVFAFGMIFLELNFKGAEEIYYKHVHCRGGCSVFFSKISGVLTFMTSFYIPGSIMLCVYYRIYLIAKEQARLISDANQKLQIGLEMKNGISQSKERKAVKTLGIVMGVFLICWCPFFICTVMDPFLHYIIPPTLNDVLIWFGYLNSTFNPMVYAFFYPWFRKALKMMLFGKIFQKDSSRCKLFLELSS
In words: Agonist activity at human TAAR1 expressed in recombinant HEK293 cells assessed as cAMP accumulation after 30 mins by luminometer relative to phenethylamine. The format is functional, cell-based.

The next experiment relates to HEK293. Kind of experiment: Selectivity ratio of EC50 for human adrenergic alpha 2A receptor expressed in CHL cells to EC50 for human TAAR1 expressed in recombinant HEK293 cells. The format is cell-based.

Molecules are shown by their SMILES.

`NC1=N[C@@H](c2ccc(Cl)c(Cl)c2)CO1`: in experiment [1], the Emax (in general, the greatest response seen or fitted, relative to the assay's reference) turned out to be 72%. For the same molecule, the Ratio EC50 in the experiment on HEK293 amounted to 94.
